Assay results taken from patent EP4834897A1, “COMPOUNDS WITH TWO AZAHETEROCYCLES SUBSTITUTED ISOINDOLINONE SKELETON AND USES THEREOF” (dated 2026).

The chains behind the UniProt entries cited, without tags or fusion partners.
UniProt Q96SW2, whole entry: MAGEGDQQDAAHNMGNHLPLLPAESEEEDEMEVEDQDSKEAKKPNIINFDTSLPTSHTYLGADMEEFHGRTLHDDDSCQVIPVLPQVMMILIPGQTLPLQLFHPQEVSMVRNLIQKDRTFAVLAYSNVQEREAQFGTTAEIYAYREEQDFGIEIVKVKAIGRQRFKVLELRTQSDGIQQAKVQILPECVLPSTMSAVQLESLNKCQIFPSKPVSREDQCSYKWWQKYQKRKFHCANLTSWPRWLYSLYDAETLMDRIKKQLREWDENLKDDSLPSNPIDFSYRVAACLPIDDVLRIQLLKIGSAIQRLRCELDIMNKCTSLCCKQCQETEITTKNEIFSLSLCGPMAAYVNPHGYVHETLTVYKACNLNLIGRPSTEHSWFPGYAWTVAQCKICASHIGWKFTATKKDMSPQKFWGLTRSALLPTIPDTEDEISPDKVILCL
UniProt P48729, whole entry: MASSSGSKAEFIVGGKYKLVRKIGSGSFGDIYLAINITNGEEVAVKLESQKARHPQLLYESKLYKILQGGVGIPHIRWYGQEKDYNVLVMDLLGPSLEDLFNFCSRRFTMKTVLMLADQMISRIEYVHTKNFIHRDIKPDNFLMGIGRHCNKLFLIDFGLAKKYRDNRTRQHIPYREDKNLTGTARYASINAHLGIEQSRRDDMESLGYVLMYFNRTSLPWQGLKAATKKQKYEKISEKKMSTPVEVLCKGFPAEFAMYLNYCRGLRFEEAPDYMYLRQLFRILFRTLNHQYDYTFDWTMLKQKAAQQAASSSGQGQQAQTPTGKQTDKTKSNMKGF
UniProt P15170, whole entry: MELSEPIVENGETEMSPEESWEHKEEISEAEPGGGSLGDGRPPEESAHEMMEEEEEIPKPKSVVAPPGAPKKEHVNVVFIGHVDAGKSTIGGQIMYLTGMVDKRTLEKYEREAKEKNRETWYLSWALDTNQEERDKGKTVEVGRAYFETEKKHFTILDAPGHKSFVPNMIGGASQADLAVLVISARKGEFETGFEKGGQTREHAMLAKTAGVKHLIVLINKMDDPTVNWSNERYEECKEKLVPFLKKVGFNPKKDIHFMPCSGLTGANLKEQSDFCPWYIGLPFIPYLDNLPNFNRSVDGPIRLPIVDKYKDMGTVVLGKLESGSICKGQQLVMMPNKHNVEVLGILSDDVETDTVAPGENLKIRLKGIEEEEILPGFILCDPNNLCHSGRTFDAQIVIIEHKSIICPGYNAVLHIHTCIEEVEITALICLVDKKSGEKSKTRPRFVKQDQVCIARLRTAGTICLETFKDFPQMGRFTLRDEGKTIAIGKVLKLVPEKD
UniProt Q13422, whole entry: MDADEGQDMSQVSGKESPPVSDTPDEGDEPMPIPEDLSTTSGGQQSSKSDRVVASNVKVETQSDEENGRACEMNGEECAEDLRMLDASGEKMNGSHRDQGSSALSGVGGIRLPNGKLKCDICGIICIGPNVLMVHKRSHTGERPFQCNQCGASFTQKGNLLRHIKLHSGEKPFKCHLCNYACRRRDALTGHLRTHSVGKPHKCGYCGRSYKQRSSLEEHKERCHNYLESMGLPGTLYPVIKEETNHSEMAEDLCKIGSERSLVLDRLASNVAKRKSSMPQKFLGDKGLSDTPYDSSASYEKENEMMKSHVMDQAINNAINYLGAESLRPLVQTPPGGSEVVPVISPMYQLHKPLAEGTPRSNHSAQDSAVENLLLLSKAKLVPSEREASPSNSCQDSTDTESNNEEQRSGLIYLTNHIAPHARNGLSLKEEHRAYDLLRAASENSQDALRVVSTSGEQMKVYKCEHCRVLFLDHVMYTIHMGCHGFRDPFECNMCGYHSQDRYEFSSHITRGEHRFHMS
UniProt Q9UKS7, whole entry: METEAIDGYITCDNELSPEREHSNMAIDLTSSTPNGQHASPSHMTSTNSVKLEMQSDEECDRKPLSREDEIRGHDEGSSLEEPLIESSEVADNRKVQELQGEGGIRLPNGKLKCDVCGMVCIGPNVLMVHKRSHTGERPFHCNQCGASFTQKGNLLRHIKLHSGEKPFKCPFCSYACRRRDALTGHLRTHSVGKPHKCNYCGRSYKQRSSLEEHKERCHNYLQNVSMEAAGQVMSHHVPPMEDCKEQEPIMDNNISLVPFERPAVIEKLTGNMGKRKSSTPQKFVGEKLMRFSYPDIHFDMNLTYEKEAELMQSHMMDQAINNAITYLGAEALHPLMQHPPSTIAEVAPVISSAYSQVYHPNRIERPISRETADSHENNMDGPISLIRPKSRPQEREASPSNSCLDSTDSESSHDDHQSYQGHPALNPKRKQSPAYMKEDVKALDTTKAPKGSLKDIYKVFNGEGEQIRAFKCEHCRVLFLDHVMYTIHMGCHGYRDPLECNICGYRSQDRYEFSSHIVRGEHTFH
UniProt Q9UKT9, whole entry: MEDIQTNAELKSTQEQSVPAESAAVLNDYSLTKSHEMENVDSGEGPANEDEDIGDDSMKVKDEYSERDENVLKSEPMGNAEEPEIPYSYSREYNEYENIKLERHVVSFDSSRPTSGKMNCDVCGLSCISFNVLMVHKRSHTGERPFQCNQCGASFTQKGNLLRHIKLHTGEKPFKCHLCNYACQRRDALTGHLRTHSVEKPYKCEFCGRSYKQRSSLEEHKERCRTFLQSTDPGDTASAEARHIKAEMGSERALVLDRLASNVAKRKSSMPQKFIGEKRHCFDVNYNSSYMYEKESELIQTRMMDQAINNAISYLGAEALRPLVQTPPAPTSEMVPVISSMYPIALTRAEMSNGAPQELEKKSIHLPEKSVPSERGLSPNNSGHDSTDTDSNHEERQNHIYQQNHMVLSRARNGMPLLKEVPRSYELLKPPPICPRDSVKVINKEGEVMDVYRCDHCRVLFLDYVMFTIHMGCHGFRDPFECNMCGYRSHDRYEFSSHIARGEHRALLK
UniProt P30291, whole entry: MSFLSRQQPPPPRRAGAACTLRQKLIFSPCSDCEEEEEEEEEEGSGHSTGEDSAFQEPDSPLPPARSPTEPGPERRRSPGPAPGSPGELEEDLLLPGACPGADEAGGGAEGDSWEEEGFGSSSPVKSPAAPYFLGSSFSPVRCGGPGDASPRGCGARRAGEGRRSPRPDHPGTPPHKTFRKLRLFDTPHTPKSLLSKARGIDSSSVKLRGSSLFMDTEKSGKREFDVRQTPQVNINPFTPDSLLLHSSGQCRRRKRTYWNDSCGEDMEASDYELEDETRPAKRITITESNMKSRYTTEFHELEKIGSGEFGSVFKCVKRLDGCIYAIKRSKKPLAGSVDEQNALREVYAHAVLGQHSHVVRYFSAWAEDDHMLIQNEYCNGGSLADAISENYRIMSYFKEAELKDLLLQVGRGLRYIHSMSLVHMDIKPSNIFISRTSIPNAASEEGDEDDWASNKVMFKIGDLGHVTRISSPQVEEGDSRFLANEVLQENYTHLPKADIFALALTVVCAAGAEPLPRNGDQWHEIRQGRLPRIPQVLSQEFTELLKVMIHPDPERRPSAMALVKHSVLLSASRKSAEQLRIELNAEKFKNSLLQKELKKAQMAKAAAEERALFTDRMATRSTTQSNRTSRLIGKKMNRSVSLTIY
UniProt Q16531, whole entry partner: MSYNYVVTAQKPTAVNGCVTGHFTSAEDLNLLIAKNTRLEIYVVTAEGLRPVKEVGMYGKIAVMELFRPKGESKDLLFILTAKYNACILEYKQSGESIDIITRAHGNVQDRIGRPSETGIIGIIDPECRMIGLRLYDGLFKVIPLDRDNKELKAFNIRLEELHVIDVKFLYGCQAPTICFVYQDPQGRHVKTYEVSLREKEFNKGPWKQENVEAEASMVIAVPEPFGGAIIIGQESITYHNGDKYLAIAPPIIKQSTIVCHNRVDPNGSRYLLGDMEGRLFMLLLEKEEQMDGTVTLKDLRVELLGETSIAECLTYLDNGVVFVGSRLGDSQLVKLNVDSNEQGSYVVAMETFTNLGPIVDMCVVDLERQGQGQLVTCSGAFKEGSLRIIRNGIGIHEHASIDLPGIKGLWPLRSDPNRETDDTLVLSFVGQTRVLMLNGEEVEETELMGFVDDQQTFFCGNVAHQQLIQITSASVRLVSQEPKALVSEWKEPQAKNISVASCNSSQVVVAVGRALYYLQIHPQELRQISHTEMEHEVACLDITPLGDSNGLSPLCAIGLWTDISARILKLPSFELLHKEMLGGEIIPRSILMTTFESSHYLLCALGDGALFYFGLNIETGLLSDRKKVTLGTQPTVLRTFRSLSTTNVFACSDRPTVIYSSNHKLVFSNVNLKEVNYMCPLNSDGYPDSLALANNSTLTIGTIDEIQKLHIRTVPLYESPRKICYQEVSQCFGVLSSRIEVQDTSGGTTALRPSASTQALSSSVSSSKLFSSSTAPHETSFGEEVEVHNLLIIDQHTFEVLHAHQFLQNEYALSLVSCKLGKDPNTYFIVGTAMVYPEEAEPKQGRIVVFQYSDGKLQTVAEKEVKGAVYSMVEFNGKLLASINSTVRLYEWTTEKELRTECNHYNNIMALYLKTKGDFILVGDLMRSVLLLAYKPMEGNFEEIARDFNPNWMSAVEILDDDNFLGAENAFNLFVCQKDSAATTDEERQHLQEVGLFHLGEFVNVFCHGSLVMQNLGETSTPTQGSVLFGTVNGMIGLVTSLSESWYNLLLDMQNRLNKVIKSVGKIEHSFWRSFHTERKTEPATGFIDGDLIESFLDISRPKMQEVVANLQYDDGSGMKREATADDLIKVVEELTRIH

Legend:
[1] = target: CRBN (Homo sapiens, UniProt Q96SW2); assay: CRBN binding affinity by HTRF (CEREBLON BINDING kit); conditions: for Inhibition Rate at 0.5 µM (%) / Inhibition Rate at 2 µM (%): CRBN binding, HTRF; for Inhibition Rate at 0.5 µM (%): compound at 0.5 µM; for Inhibition Rate at 2 µM (%): compound at 2 µM; for IC50: read-out: HTRF IC50, human Cereblon WT GST-tagged protein, 3 hours at room temperature
[2] = target: CK1α (Homo sapiens, UniProt P48729+Q96SW2); assay: Western blot assay of substrate protein degradation in hPBMCs; conditions: 24 hours treatment, compounds at 50 nM and 500 nM (concentration behind the class not stated)
[3] = target: GSPT1 (Homo sapiens, UniProt P15170+Q96SW2); assay: as above; conditions: 24 hours treatment, compounds at 50 nM and 500 nM (concentration behind the class not stated)
[4] = target: IKZF1 (Homo sapiens, UniProt Q13422+Q96SW2); assay: as above; conditions: 24 hours treatment, compounds at 50 nM and 500 nM (concentration behind the class not stated)
[5] = target: IKZF2 (Homo sapiens, UniProt Q96SW2+Q9UKS7); assay: as above; conditions: 24 hours treatment, compounds at 50 nM and 500 nM (concentration behind the class not stated)
[6] = target: IKZF3 (Homo sapiens, UniProt Q96SW2+Q9UKT9); assay: as above; conditions: 24 hours treatment, compounds at 50 nM and 500 nM (concentration behind the class not stated)
[7] = target: WEE1 (Homo sapiens, UniProt P30291+Q96SW2); assay: as above; conditions: 24 hours treatment, compounds at 50 nM and 500 nM (concentration behind the class not stated)

Row | SMILES | Inhibition Rate at 0.5 µM (%) [1] | Inhibition Rate at 2 µM (%) [1] | IC50 [1] | substrate protein remaining % (CK1a) [2] | substrate protein remaining % (GSPT1) [3] | substrate protein remaining % (IKZF 1) [4] | substrate protein remaining % (IKZF2) [5] | substrate protein remaining % (IKZF3) [6] | substrate protein remaining % (WEE1) [7]
1 | O=C1CCC(N2Cc3ccc(CN4CCC(N5CC=C(c6cccc(Cl)c6Cl)CC5)C(F)(F)C4)cc3C2=S)C(=O)N1 (centres unmarked) | a4 (40% < a4 ≤ 53%) | a7 (70% < a7 ≤80%) |  | B (80%< substrate protein remaining %≤ 100%) | A (0% ≤ substrate protein remaining % ≤ 80%) | B (80%< substrate protein remaining %≤ 100%) | A (0% ≤ substrate protein remaining % ≤ 80%) | B (80%< substrate protein remaining %≤ 100%) | B (80%< substrate protein remaining %≤ 100%)
2 | O=C1CCC(N2Cc3c(CN4CCC(N5CCN(C(c6ccccc6)c6ccccn6)CC5)C(F)(F)C4)cccc3C2=O)C(=O)N1 (centres unmarked) | a6 (60% < a6 ≤ 70%) | a8 (80% < a8 ≤100%) |  | A (0% ≤ substrate protein remaining % ≤ 80%) | A (0% ≤ substrate protein remaining % ≤ 80%) | B (80%< substrate protein remaining %≤ 100%) | B (80%< substrate protein remaining %≤ 100%) | B (80%< substrate protein remaining %≤ 100%) | B (80%< substrate protein remaining %≤ 100%)
3 | O=C1CCC(N2Cc3c(CN4CCC(N5CCN(c6cccc(Cl)c6Cl)CC5)CC4)cccc3C2=O)C(=O)N1 (centres unmarked) |  |  | 1000 to 1500 nM | B (80%< substrate protein remaining %≤ 100%) | A (0% ≤ substrate protein remaining % ≤ 80%) | A (0% ≤ substrate protein remaining % ≤ 80%) | A (0% ≤ substrate protein remaining % ≤ 80%) | B (80%< substrate protein remaining %≤ 100%) | B (80%< substrate protein remaining %≤ 100%)
4 | O=C1CCC(N2Cc3cc(CN4CCC(N5CCN(C(c6ccccc6)c6ccccc6)CC5)C(F)(F)C4)cc(F)c3C2=O)C(=O)N1 (centres unmarked) |  |  | 500 to 1000 nM | B (80%< substrate protein remaining %≤ 100%) | A (0% ≤ substrate protein remaining % ≤ 80%) | A (0% ≤ substrate protein remaining % ≤ 80%) | B (80%< substrate protein remaining %≤ 100%) | A (0% ≤ substrate protein remaining % ≤ 80%) | A (0% ≤ substrate protein remaining % ≤ 80%)
5 | CC1(C)CCC(CN2CCN(C3CCN(Cc4cccc5c4C(=O)N(C4CCC(=O)NC4=O)C5)CC3(F)F)CC2)=C(c2ccc(Cl)cc2)C1 (centres unmarked) |  |  |  | A (0% ≤ substrate protein remaining % ≤ 80%) | A (0% ≤ substrate protein remaining % ≤ 80%) | B (80%< substrate protein remaining %≤ 100%) | B (80%< substrate protein remaining %≤ 100%) | B (80%< substrate protein remaining %≤ 100%) | B (80%< substrate protein remaining %≤ 100%)
6 | O=C1CCC(N2C(=O)c3ccc(C(=O)N4CCC(N5CCN(C(c6ccccc6)c6ccccn6)CC5)C(F)(F)C4)cc3C2=O)C(=O)N1 (centres unmarked) |  |  |  | B (80%< substrate protein remaining %≤ 100%) | A (0% ≤ substrate protein remaining % ≤ 80%) | B (80%< substrate protein remaining %≤ 100%) | B (80%< substrate protein remaining %≤ 100%) | B (80%< substrate protein remaining %≤ 100%) | A (0% ≤ substrate protein remaining % ≤ 80%)
7 | O=C1CCC(N2Cc3ccc(CN4CCC(N5CCN(c6cccc(Cl)c6Cl)CC5)CC4)cc3C2=O)C(=O)N1 (centres unmarked) |  |  |  | B (80%< substrate protein remaining %≤ 100%) | A (0% ≤ substrate protein remaining % ≤ 80%) | A (0% ≤ substrate protein remaining % ≤ 80%) | A (0% ≤ substrate protein remaining % ≤ 80%) | B (80%< substrate protein remaining %≤ 100%) | B (80%< substrate protein remaining %≤ 100%)
8 | O=C1CCC(N2Cc3cccc(CN4CCC(N5CCC(c6noc7cc(F)ccc67)CC5)C(F)(F)C4)c3C2=O)C(=O)N1 (centres unmarked) |  |  |  | B (80%< substrate protein remaining %≤ 100%) | A (0% ≤ substrate protein remaining % ≤ 80%) | B (80%< substrate protein remaining %≤ 100%) | B (80%< substrate protein remaining %≤ 100%) | B (80%< substrate protein remaining %≤ 100%) | B (80%< substrate protein remaining %≤ 100%)
9 | O=C1CCC(N2C(=O)c3cccc(CN4CCC(N5CC=C(c6cccc(Cl)c6Cl)CC5)C(F)(F)C4)c3C2=O)C(=O)N1 (centres unmarked) |  |  |  | B (80%< substrate protein remaining %≤ 100%) | A (0% ≤ substrate protein remaining % ≤ 80%) | B (80%< substrate protein remaining %≤ 100%) | B (80%< substrate protein remaining %≤ 100%) | B (80%< substrate protein remaining %≤ 100%) | B (80%< substrate protein remaining %≤ 100%)

Continued, in another order:

Row | Inhibition Rate at 0.5 µM (%) [1] | Inhibition Rate at 2 µM (%) [1] | IC50 [1] | SMILES | substrate protein remaining % (CK1a) [2] | substrate protein remaining % (GSPT1) [3] | substrate protein remaining % (IKZF 1) [4] | substrate protein remaining % (IKZF2) [5] | substrate protein remaining % (IKZF3) [6] | substrate protein remaining % (WEE1) [7]
10 | a4 (40% < a4 ≤ 53%) | a8 (80% < a8 ≤100%) |  | O=C1CCC(N2Cc3cc(CCCN4CCC(N5CCN(C(c6ccccc6)c6ccccc6)CC5)C(F)(F)C4)ccc3C2=O)C(=O)N1 (centres unmarked) | B (80%< substrate protein remaining %≤ 100%) | A (0% ≤ substrate protein remaining % ≤ 80%) | B (80%< substrate protein remaining %≤ 100%) | B (80%< substrate protein remaining %≤ 100%) | B (80%< substrate protein remaining %≤ 100%) | B (80%< substrate protein remaining %≤ 100%)
11 | a5 (53% < a5 ≤ 60%) | a8 (80% < a8 ≤100%) |  | O=C1CCC(N2Cc3cc(CCN4CCC(N5CCN(c6noc7cc(F)ccc67)CC5)C(F)(F)C4)ccc3C2=O)C(=O)N1 (centres unmarked) | A (0% ≤ substrate protein remaining % ≤ 80%) | A (0% ≤ substrate protein remaining % ≤ 80%) | B (80%< substrate protein remaining %≤ 100%) | B (80%< substrate protein remaining %≤ 100%) | A (0% ≤ substrate protein remaining % ≤ 80%) | B (80%< substrate protein remaining %≤ 100%)
12 | a8 (80% < a8 ≤100%) | a8 (80% < a8 ≤100%) |  | O=C1CCC(N2Cc3cc(CCN4CCC(N5CCC(c6noc7cc(F)ccc67)CC5)C(F)(F)C4)ccc3C2=O)C(=O)N1 (centres unmarked) | A (0% ≤ substrate protein remaining % ≤ 80%) | A (0% ≤ substrate protein remaining % ≤ 80%) | B (80%< substrate protein remaining %≤ 100%) | A (0% ≤ substrate protein remaining % ≤ 80%) | A (0% ≤ substrate protein remaining % ≤ 80%) | A (0% ≤ substrate protein remaining % ≤ 80%)
13 | a3 (30% < a3 ≤ 40%) | a7 (70% < a7 ≤80%) |  | O=C1CCC(N2Cc3cc(C(=O)N4CCC(N5CCN(c6noc7cc(F)ccc67)CC5)C(F)(F)C4)cc(F)c3C2=O)C(=O)N1 (centres unmarked) | B (80%< substrate protein remaining %≤ 100%) | A (0% ≤ substrate protein remaining % ≤ 80%) | B (80%< substrate protein remaining %≤ 100%) | B (80%< substrate protein remaining %≤ 100%) | A (0% ≤ substrate protein remaining % ≤ 80%) | B (80%< substrate protein remaining %≤ 100%)
